This is a selection; strong and weak results do not stand in their true shares. Activity calls are given as the source filed them.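 The calls were made as follows: active = activation at 2 µM above a set limit, the mean plus 5 SD (cut at about 37% in these data); inactive = the rest.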

Chains of the proteins cited; added tags and fusions are not shown.
UniProt Q9Y2R2, whole entry: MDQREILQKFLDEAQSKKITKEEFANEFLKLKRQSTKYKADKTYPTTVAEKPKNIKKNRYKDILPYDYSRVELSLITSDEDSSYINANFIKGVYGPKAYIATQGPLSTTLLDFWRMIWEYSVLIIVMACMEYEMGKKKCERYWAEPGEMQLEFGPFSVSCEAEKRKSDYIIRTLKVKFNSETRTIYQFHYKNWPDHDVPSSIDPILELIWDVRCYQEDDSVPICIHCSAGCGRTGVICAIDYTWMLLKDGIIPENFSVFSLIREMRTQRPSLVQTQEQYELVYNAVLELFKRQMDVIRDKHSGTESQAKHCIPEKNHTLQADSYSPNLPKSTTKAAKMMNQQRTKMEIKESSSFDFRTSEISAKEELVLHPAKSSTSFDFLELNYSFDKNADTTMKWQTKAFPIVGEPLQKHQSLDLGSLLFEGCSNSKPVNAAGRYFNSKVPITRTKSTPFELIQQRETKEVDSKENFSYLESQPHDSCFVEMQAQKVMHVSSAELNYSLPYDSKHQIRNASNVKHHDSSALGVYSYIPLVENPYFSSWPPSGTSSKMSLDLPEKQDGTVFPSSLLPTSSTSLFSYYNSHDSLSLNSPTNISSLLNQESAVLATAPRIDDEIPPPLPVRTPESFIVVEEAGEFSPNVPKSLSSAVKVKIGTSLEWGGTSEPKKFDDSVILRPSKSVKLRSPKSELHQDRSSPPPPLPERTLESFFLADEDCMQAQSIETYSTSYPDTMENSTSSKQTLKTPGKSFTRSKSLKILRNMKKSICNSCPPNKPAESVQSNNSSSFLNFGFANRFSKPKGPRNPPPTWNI

This assay concerns the target Tyrosine-protein phosphatase non-receptor type 22 (Homo sapiens) (UniProt Q9Y2R2). The experiment in a line: LYP phosphatase activators, primary screen, biochemical, DiFMUP fluorescence, 2 µM (AID 697). The conditions noted are these: recombinant LYP, at 2 µM, stronger effect = higher value, 0 = plate median, 100 = signal doubled.
`CCC(CO)(C(=O)OC1CN2CCC1CC2)c1ccccc1` (stereo not given): the activation is inactive: -1.8%.

In the case of `CCOc1ncccc1C(=O)NCC1(N2CCOCC2)CCCCC1`, the activation is inactive: -0.9%.

As to `N/C(=N\O)c1c(N)no[n+]1[O-]`, the activation was inactive: 4.2%.

Regarding `c1ccc(CN2CCC(Nc3ccccc3)CC2)cc1`, the activation was inactive: -12.2%.

Regarding `O=C(NCC1(N2CCOCC2)CCCCC1)c1cc(=O)[nH]c2ccccc12`, the activation is inactive: -3.3%.

`N#CC1(Nc2ccccc2)CCN(CCc2ccccc2)CC1`: the activation is inactive: -1%.

As to `CN1CCC(Nc2cccc(F)c2)CC1`, the activation is inactive: 2%.

`O=C(OC1CN2CCC1CC2)C1c2ccccc2Oc2ccccc21` (stereo not given): the activation was inactive: 3.6%.

Consider `O=C(NCC1(N2CCOCC2)CCCCC1)c1cc2ccccc2o1`, for which the activation was inactive: -7.7%.

As for `COc1ccc(NC2CCN(CCc3ccccc3)CC2)c(OC)c1`, the activation was inactive: -6%.

The values above are taken from PubChem BioAssay AID697 (Columbia University Molecular Screening Center, 2007).
